Results on 50 compounds are retold here after PubChem BioAssay AID1347120 (National Center for Advancing Translational Sciences (NCATS), 2019).

Each structure is given as a SMILES string. The list shows a part of the results, in another mix than the full data. Records with an inconclusive call do not appear. Calls of active or inactive are those of the source. Calls come from the whole dose curve; as a rule, active = well fitted activation curve with a large enough effect; inconclusive = small, poorly fitted or top-dose-only effect; inactive = no such curve, though single readings can be large or run the other way.

This test can be described thus: qHTS for Suppressors of FUS Proteinopathy: Primary screen using FUS-linked yeast assay.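 Note: plate controls were DMSO vehicle for no effect and reference control for full effect; nearly all actives have a fitted effect of over 55% in size.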 To be noted: S. cerevisiae FUS-expressing, OD600, 24 h; at 76.6 µM (top of the series). An excerpt:
Several widespread neurodegenerative diseases, including Alzheimer disease, Huntington disease, Frontotemporal Lobar Degeneration (FTLD) and Amyotrophic Lateral Sclerosis (ALS), share a common pathological feature, namely accumulation of specific protein aggregates in diseased tissue. These diseases which is associated with protein misfolding (proteinopathies) have become increasingly problematic as the population ages and life expectancies are extended. Most proteinopathies are currently incurable, a situation confounded by the fact that the basis of neurodegeneration is generally poorly understood. There exists urgent and significant need to find therapeutics that can inhibit the toxicity associated with protein aggregation. A novel approach to understand the underlying mechanisms of neurodegenerative diseases has recently emerged in which the disease conditions are modeled in the yeast (Saccharomyces cerevisiae), a tractable eukaryotic organism with conserved protein quality control mechanisms. Yeast offers quick and reliable genetic manipulations and can be easily tailored to high-throughput screening (HTS).
For this project, a yeast model of the FUS proteinopathies (a spectrum of neurodegenerative diseases that include ALS and a subtype of FTLD) was generated and employed. The cytoplasmic accumulation of the DNA/RNA-binding protein FUS (also known as TLS) is causative to both familial and sporadic forms of ALS and FTLD. This yeast model recapitulates neuronal pathology by showing severe cytotoxicity associated with cytoplasmic accumulation of FUS aggregates and a specific interaction between FUS and TDP-43, another ALS-associated protein. […] Specifically, the cellular accumulation of misfolded FUS that disrupts RNA homeostasis in both yeast and higher eukaryotes. This model was validated to be suitable for quantitative HTS (qHTS) use for finding genetic or chemical factors that restore growth. […] Identified compounds that inhibits FUS-yeast toxicity is flagged, re-acquired, and validated for further investigation and optimization.
NIH Chemical Genomics Center [NCGC]
NIH Molecular Libraries Probe Production Centers Network [MLPCN]
Assay Submitter (PI): Frank Shewmaker PhD, Uniformed Services University of the Health Sciences
Compound CP55940 was used as the positive control. Column 1 was treated with CP55940 titration from 92uM (final concentration, 1:2 dilution), while Column 2 was treated with top dose 92uM. Columns 3 and 4 were treated with DMSO only as negative control to assess background and noise signal.
Four hundred fifty microliter of cultured yeast (in 20mL rich medium) provided by Dr. Shewmaker lab was incubated at 30C at 99% humidity for 3hr. The culture was then spun down at 4000rpm for 5min and the cell pellet was resuspended in 2mL of Sdmin Media + ALU(330) + 2.5% Raffinose. One hundred microliter of the suspension was added to 900uL of water and OD of the solution was obtained. Twenty mL of responding medium (provided by Shewmaker lab) + 2.5% raffinose was added to ensure cell density of 0.1; the solution was incubated overnight. Working cell solution (FUS-yeast in Sdmi + Sdmi + 1X ALU + 2% galactose media) was prepared (final OD at 0.005) and 3uL was dispensed in a 1536-well Aurora high based clear bottom assay plates. Controls and library compounds (at various final concentrations from 40uM to 0.32uM) were added using a 1536-well pin array using the Kalypsys pin-tool. The plates were then incubated for 24hrs in a cell-culture incubator (30C; 99% humidity). Absorbance at 600nm was then read using the PerkinElmer ViewLux plate reader.
A general note: In qHTS, concentration-response curves come from the screen itself.
In the case of `COc1cc(I)ccc1[As](=O)(O)O`, the growth rescue (activation) is inactive: 3.89%.
In the case of `COc1ccc2nc(NP(=O)(c3ccccc3)c3ccccc3)sc2c1`, the growth rescue (activation) was inactive: -0.385%.
For `O=P1(N(CCCl)CCCl)Nc2ccccc2N1`, the growth rescue (activation) was inactive: 3.47%.
As for `CC(C)c1ccc(OP(=O)(Nc2ccccn2)Oc2ccccc2F)cc1` (stereo not given), the growth rescue (activation) is inactive: 7.51%.
The figure for `ClCCSc1nnc(-c2cccnc2)o1` is inactive: -9.06%.
The figure for `O=[N+]([O-])c1cc([N+](=O)[O-])c(-c2ccn[nH]2)s1` is inactive: -7.81%; for `O=C(OC1CN2CCC1CC2)c1cccc2[nH]cnc12` (stereo not given) it is inactive: -6.94%.
The figure for `CCN(CC)C(=S)SC(NC=O)C(Cl)(Cl)Cl` (stereo not given) is inactive: -3.56%.
Take `CC(C)NC(=O)NP(=O)(Oc1ccccc1)Oc1ccccc1`: the growth rescue (activation) is inactive: 3.61%.
Take `COc1cc(C(=O)NCC2(N3CCOCC3)CCCCC2)ccc1OCC(C)C`: the growth rescue (activation) was inactive: -6.47%.
The figure for `O=[N+]([O-])c1ccc(-c2cc([N+](=O)[O-])c(O)c([N+](=O)[O-])c2)cc1` is inactive: 29.5%; for `O=[As](O)(c1ccc(O)cc1)c1ccccc1O` it is inactive: -1.73%.
The figure for `C[As](=O)(O)c1cccc(C(=O)O)c1` is inactive: -10.1%.
The figure for `Cc1ccc2nc3c(c(C)c2c1)CC(C(Cl)Cl)S3` (stereo not given) is inactive: 25%; for `Cc1ccc(OP(=O)(Nc2ccc([N+](=O)[O-])cn2)Oc2ccc(C)cc2)cc1` it is inactive: -19.2%; for `[N-]=[N+]=NC1CCCCC1NC(=O)c1cc([N+](=O)[O-])cc([N+](=O)[O-])c1` (stereo not given) it is inactive: -5.67%.
Regarding `CCOC(=O)Nc1cccc([As](=O)(O)O)c1`, the growth rescue (activation) is inactive: -5.83%.
The figure for `O=[N+]([O-])c1ccc(Nc2ccc(Oc3ccc([N+](=O)[O-])cc3[N+](=O)[O-])cc2)c([N+](=O)[O-])c1` is inactive: -30.8%; for `Cc1cc(SC(NC=O)C(Cl)(Cl)Cl)ncn1` (stereo not given) it is inactive: 0.72%.
Regarding `O=P(Nc1ccccn1)(c1cccc2ccccc12)c1cccc2ccccc12`, the growth rescue (activation) was inactive: 2.86%.
`CC1CCNP(=O)(N(CCCl)CCCl)O1` (stereo not given): the growth rescue (activation) was inactive: -15.2%.
As to `O=C(O)C(O)c1ccc(N(CCCl)CCCl)cc1` (stereo not given), the growth rescue (activation) was inactive: 2.08%.
On to `CCOC(=O)Nc1ccc([As](=O)(O)O)c(O)c1`, for which the growth rescue (activation) was inactive: -18.2%.
The figure for `CCCCOc1ccc(C(=O)NCC2(N3CCCCC3)CCCCC2)cc1OC` is inactive: 18%; for `COP(=O)(OC)N1CC1c1ccccc1` (stereo not given) it is inactive: -5.23%.
The figure for `CCOC(=O)c1ccc(NC(=O)C(C)(CCl)SC)cc1` (stereo not given) is inactive: 6.71%; for `CSc1ccc(Nc2c([N+](=O)[O-])cc([N+](=O)[O-])cc2[N+](=O)[O-])cc1` it is inactive: -7.66%; for `O=C(OC1CN2CCC1CC2)c1cccc([N+](=O)[O-])c1` (stereo not given) it is inactive: 14.4%.
`CCC(C)N(CC(C)C)C(=S)SC(NC(C)=O)C(Cl)(Cl)Cl` (stereo not given): the growth rescue (activation) is inactive: 4.48%.
The figure for `COC(=O)C1(C)COP(=O)(N2CCCC2)OC1` (stereo not given) is inactive: -23.6%; for `COP1(=S)c2c(C)nn(CCC#N)c2N=C(c2ccc(F)cc2)N1C` (stereo not given) it is inactive: -5.31%.
Turning to `O=C(Nc1ccncc1[N+](=O)[O-])c1ccc([N+](=O)[O-])cc1[N+](=O)[O-]`, the growth rescue (activation) was inactive: -23.2%.
The figure for `O=C(COc1ccccc1)OC1CN2CCC1CC2` (stereo not given) is inactive: 4.42%; for `O=C(O)C(=O)c1ccc(N(CCCl)CCCl)cc1` it is inactive: -8.19%; for `C[N+]1=C2C=CC=CC=C2SC12C([N+](=O)[O-])=CC([N+](=O)[O-])=C[C-]2[N+](=O)[O-]` (stereo not given) it is inactive: 24.1%.
Take `Nc1ccc([As](=O)(O)c2ccc(N)cc2)cc1`: the growth rescue (activation) is inactive: -18.2%.
The figure for `CCN(/C(=N/P(=O)(N1CCOCC1)N1CCOCC1)N1CCOCC1)c1ccc(OC)cc1` is inactive: 0.167%; for `CC(C)=N/N=C(\N)N[N+](=O)[O-]` it is inactive: 0.174%; for `CC(C)c1nc(Nc2ccccc2)n(P(=O)(N(C)C)N(C)C)n1` it is inactive: -21.4%.
The figure for `c1cc(-c2nn[nH]n2)ccc1-c1nn[nH]n1` is inactive: -24.3%.
The figure for `CC1CCN(C(=O)Oc2c(Cl)cc(Cl)c3cccnc23)CC1` is inactive: 21.4%; for `COc1ccc(C2=NCC(CBr)S2)cc1` (stereo not given) it is inactive: 3.75%.
For `CC(=O)N1C2C3N(C(C)=O)C1C1N(C(C)=O)C(C(N1C(C)=O)N3C(C)=O)N2C(C)=O`, the growth rescue (activation) was inactive: 7.55%.
Consider `O=[N+]([O-])c1cccc2n[nH]nc12`, for which the growth rescue (activation) was inactive: 12.7%.
Turning to `O=[N+]([O-])c1cc([N+](=O)[O-])c(CCNc2ccccc2)c([N+](=O)[O-])c1`, the growth rescue (activation) was inactive: 22.9%.
For `Cc1ccc(NP(=O)(Oc2ccccc2)Oc2ccccc2)nc1`, the growth rescue (activation) was inactive: 9.93%.
Regarding `CC(C)(C)C(=O)NC(Sc1ccncn1)C(Cl)(Cl)Cl` (stereo not given), the growth rescue (activation) is inactive: 15.3%.
Turning to `O=[N+]([O-])c1ncn(CCn2ncnc2[N+](=O)[O-])n1`, the growth rescue (activation) was inactive: -4.11%.
The figure for `O=[N+]([O-])c1cccc(NC2=NCC(CBr)S2)c1` (stereo not given) is inactive: 3.98%; for `O=C(O)CNc1ccc([As](=O)(O)O)cc1` it is inactive: -26.4%.
